Results as given in US20150148256A1, “BIOLUMINESCENCE IMAGING-BASED SCREENING ASSAY AND INHIBITORS OF ABCG2” (THE JOHNS HOPKINS UNIVERSITY, priority 2008, published 2015).

The chains behind the UniProt entries cited, without tags or fusion partners. Where a name states a change or a piece, a line headed by the entry shows the natural chain unless it says otherwise.
UniProt Q9UNQ0: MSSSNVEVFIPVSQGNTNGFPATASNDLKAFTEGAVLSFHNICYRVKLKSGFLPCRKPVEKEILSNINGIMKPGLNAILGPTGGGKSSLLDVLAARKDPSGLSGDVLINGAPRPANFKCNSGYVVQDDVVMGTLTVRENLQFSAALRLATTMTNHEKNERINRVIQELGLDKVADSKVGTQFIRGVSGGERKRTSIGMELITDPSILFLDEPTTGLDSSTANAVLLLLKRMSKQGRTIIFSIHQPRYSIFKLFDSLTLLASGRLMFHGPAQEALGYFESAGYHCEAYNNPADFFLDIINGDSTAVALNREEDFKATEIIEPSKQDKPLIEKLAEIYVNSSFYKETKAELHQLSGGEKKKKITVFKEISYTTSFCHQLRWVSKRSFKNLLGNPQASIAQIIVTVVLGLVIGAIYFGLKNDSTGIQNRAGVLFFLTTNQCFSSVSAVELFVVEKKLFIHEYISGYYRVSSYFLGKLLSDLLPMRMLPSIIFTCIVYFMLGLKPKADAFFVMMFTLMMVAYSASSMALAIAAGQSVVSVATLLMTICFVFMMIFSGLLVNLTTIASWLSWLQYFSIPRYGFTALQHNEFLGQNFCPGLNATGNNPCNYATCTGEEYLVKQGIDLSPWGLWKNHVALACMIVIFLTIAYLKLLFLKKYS

Biological target: ABCG2 (Homo sapiens, UniProt Q9UNQ0)

lopinavir/ritonavir
Fold (BLI enhancement, S/B ratio over control): 3.5 fold | fold (BLI enhancement), additional previously known ABCG2 inhibitors: 3.5 fold
